Measurements: patent publication US20250041311A1, “Compound For Treating or Preventing Vimentin-Mediated Diseases” (Aluda Pharmaceuticals, Inc., priority 2021, published 2025)

Columns and labels:
[1] = test system: primary human hepatocytes; conditions: highest concentration of 10 μM, 3 days
[2] = test system: human umbilical vein endothelial cells (HUVEC); conditions: highest concentration of 10 μM, 3 days

Structure (SMILES) | toxic effects on human hepatocytes [1] | toxic effects on human umbilical vein endothelial cells [2]
O=C(Nc1ccc(Cl)cc1)Nc1ccc(Nc2nc(/C=C/c3ccccc3)nc(N3CCOCC3)n2)cc1 [Compound C50] | no toxic effects | no toxic effects
O=C(Nc1ccc(F)cc1)Nc1ccc(Nc2nc(/C=C/c3ccccc3)nc(N3CCOCC3)n2)cc1 [Compound C52] | no toxic effects | no toxic effects
